Species: Homo sapiens
Experiment: Selectivity ratio, ratio of RBA for human recombinant ERbeta to RBA for human recombinant ERalpha

Going from `CC(C)(C)c1cc(/C=C/c2cc(O)cc(O)c2)cc(C(C)(C)C)c1O` to `CC(C)(C)c1cc(/C=C/C=C/c2cc(O)cc(O)c2)cc(C(C)(C)C)c1O`, the Ratio rises from 0.81 to 1.16.

Compared with `Oc1ccc(/C=C/C=C/c2cc(O)cc(O)c2)cc1`, `CC(C)(C)c1cc(/C=C/C=C/c2cc(O)cc(O)c2)ccc1O` is lower in Ratio: 3.35 for the first, 1.1 for the second.

Compared with `CCC(CC)c1cc(/C=C/C=C/c2cc(O)cc(O)c2)ccc1O`, `CCC(CC)c1cc(/C=C/c2cc(O)cc(O)c2)ccc1O` is higher in Ratio: 0.55 for the first, 0.79 for the second.

Compared with `CCC(CC)c1cc(/C=C/C=C/c2cc(O)cc(O)c2)cc(C(CC)CC)c1O`, `CCC(CC)c1cc(/C=C/c2cc(O)cc(O)c2)cc(C(CC)CC)c1O` is lower in Ratio: 0.89 for the first, 0.54 for the second.

Compared with `CC(C)(C)c1cc(/C=C/c2cc(C(C)(C)C)c(O)c(C(C)(C)C)c2)cc(C(C)(C)C)c1O`, `CC(C)(C)c1cc(/C=C/c2cc(O)cc(O)c2)ccc1O` is lower in Ratio: 0.6 for the first, 0.59 for the second.

Compound `CC(C)(C)c1cc(/C=C/c2ccc(O)cc2)ccc1O` has a Ratio of 3.28.

Source: ChEMBL document CHEMBL1641570, “New hydroxystilbenoid derivatives endowed with neuroprotective activity and devoid of interference with estrogen and aryl hydrocarbon receptor-mediated transcription” (Bioorg Med Chem, 2011)
